Data: PubChem BioAssay AID504634 (The Scripps Research Institute Molecular Screening Center, 2011)
The list shows a part of the results, in another mix than the full data. Calls of active or inactive are those of the source. Rule as the data show it: active = inhibition mostly above about 23% (no sharp cut-off); inactive = mostly below about 18%.

By UniProt entry, the sequences of proteins in these tests, tags left out.
UniProt P47898, whole entry: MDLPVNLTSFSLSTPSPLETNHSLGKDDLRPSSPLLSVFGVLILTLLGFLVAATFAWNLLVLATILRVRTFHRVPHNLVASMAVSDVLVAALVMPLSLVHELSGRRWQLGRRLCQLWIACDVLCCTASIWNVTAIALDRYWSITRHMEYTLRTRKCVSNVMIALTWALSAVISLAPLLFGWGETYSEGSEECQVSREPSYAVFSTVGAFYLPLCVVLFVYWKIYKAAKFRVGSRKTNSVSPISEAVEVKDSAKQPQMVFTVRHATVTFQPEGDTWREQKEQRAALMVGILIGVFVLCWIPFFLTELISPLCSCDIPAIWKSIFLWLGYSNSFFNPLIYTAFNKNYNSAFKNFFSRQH

These compounds were tested against 5-hydroxytryptamine receptor 5A (Homo sapiens) (UniProt P47898) (assay: inverse agonism at human 5-HT5A receptor – cell-based, luminescence, full-deck HTS, counter-screen for OPRM1-OPRD1 heterodimer inverse agonist project, primary screen (AID 504634;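 also: 0% = cells with DMSO and 100% = no-cell wells with DMSO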)). Settings: HTR5A cell line, at 9.3 µM, hits give high values.

| SMILES | inhibition |
| --- | --- |
| Cc1ccc(-c2csc(NC(=O)Cn3cnc4c3c(=O)n(C)c(=O)n4C)n2)cc1C | inactive: -1.74% |
| COc1ccccc1OP(C)(=O)Nc1ccc(C)cc1 (configuration not stated) | inactive: 4.83% |
